# Measured values from PubChem BioAssay AID651596 (Sanford-Burnham Center for Chemical Genomics, 2012).
# The list shows a part of the results, in another mix than the full data.
# Test: viability loss of caspase-8 NB7 cells with TRAIL – with/without TRAIL, luminescence panel, confirmation (AID 651596)
# Conditions: NB7 neuroblastoma + caspase-8, without TRAIL, NB7 Caspase-8, mean of runs, at 10 µM
row,Structure (SMILES),activity
1,CCCCCCCCCCCCCCCC1C[N+](C)(C)CCOP(C)(=O)O1 (configuration not stated),91.8%
2,O=[N+]([O-])c1cc([N+](=O)[O-])c(Nc2ccccn2)c([N+](=O)[O-])c1,55%
